Measurements: patent US6608036B1, “Oligonucleotide N3′→P5′ thiophosphoramidates: their synthesis and administration to treat neoplasms” (Geron Corporation, priority 1999, dated 2003)

Test system: telomerase (affinity-purified extract from 293 cells over-expressing hTERT)
Test: Bio-Tel FlashPlate telomerase activity assay
Type: biochemical, human
Conditions: read-out: IC50(nM) phosphoramidate; telomerase inhibition, phosphoramidate backbone

In the case of 5′-TAGGGTTAGACAA-3′, the IC50 is reported as 1.64 nM.
